scFv variants of Ab-14 (heavy chain) against a SARS-CoV-2 spike peptide

Target peptide (SARS-CoV-2 spike, HR2 region): PDVDLGDISGINAS

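Phage display of a naive human antibody library on the peptide gave the parent. The library (AAYL49) carries one to three amino acid substitutions per variant, with no insertions or deletions. In AlphaSeq, yeast of one mating type display the scFv and yeast of the other type display the target. Mating (16 h, 30 °C) was followed by selection of diploids and sequencing of their barcodes. A regression on co-assayed BCL2-family reference pairs converts the normalised counts of each replicate to an apparent Kd. There are three technical replicates.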

Each scFv is VH, three GGGGS repeats, VL, as in the parent Ab-14, and differs from it in the CDRs of the heavy chain only.
VH: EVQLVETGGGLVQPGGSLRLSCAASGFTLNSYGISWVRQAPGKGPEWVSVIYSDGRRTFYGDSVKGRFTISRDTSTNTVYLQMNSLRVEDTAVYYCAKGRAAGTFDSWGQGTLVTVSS
VL: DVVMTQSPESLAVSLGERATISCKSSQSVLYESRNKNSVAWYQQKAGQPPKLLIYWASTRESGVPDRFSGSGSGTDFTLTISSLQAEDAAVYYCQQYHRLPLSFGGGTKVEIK

Positions count from residue 1 of the parent VH; G33Q puts Q in place of G. Scale: log10 of Kd in nM, estimated from mating counts; low values are strong binders. "n.d." marks a missing value. The strain was present, yet no cells mated with the target were sequenced in that replicate, which points to weak or no binding.

| # | changes | log10 Kd, replicates | signal with controls |
|---|---|---|---|
| 1 | G33Q+S53M+T104R | n.d. / n.d. / n.d. | 1 of 9 (3.09) |
| 2 | G99S+T104V+F105S | n.d. / n.d. / n.d. | 1 of 9 (5.62) |
| 3 | I51D+S63L+K65I | n.d. / n.d. / n.d. | 0 of 9 |
| 4 | T28I+F59S+G103S | n.d. / n.d. / n.d. | 2 of 9 (3.40) |
| 5 | G26I+G61I+S63P | 4.63 / 3.94 / 3.82 | 1 of 9 (3.92) |
| 6 | S35D+I51C+K65L | 6.47 / 4.63 / 4.70 | 5 of 9 (4.49) |
| 7 | G99L+R100F+D106N | n.d. / n.d. / n.d. | 0 of 9 |
| 8 | G55D+R57I+K65R | n.d. / n.d. / n.d. | 0 of 9 |
| 9 | S31K+D62E+A102R | 0.88 / 0.91 / 0.98 | 4 of 9 (4.40) |
| 10 | I34T+G61H+A101Y | n.d. / n.d. / n.d. | 1 of 9 (3.45) |
| 11 | S35R+S53H+S63L | n.d. / n.d. / 2.94 | 1 of 9 (4.06) |
| 12 | G33S+R56N+S63Q | n.d. / 4.31 / n.d. | 0 of 9 |
| 13 | I51E+F105K+S107W | n.d. / n.d. / n.d. | 0 of 9 |
| 14 | F27V+G55P | n.d. / n.d. / n.d. | 0 of 9 |
| 15 | G26T+I51K+R100M | 6.15 / 5.33 / n.d. | 4 of 9 (4.22) |
| 16 | N30D+G55T+G61K | n.d. / n.d. / n.d. | 0 of 9 |
| 17 | L29N+V50D+R57Q | 4.64 / n.d. / n.d. | 1 of 9 (5.43) |
| 18 | G55H+F59R+S107A | n.d. / n.d. / n.d. | 1 of 9 (3.06) |
| 19 | F27E+N30A+V64P | n.d. / n.d. / n.d. | 2 of 9 (2.68) |
| 20 | G26A+T58E+F59Y | 2.24 / 2.28 / 2.28 | 2 of 9 (4.66) |
| 21 | S31N+Y52F+R100Q | 0.92 / 1.05 / 1.01 | 2 of 9 (4.01) |
| 22 | F27H+I51M+Y60G | n.d. / n.d. / n.d. | 0 of 9 |
| 23 | S35M+V50S+Y52C | n.d. / 3.63 / n.d. | 6 of 9 (4.13) |
| 24 | Y32D+S35I+A101Y | n.d. / 3.20 / 5.56 | 2 of 9 (3.73) |
| 25 | R56M+D62G+R100A | 1.97 / 1.71 / 2.23 | 0 of 9 |
| 26 | G26I+I51W+F105G | n.d. / n.d. / n.d. | 3 of 9 (3.21) |
| 27 | Y32N+T58Y+T104E | n.d. / n.d. / n.d. | 1 of 9 (4.02) |
| 28 | S35I+G61Q+A102R | 4.97 / n.d. / n.d. | 1 of 9 (4.62) |
| 29 | Y32G+F59M+K65D | n.d. / 3.03 / n.d. | 0 of 9 |
| 30 | T28I+I51Q+R100A | n.d. / n.d. / n.d. | 0 of 9 |
| 31 | S31Y+S53W+D54Y | n.d. / n.d. / 4.12 | 4 of 9 (3.67) |

As a blank, each scFv also met three strains without target: over library AAYL49, 15% of these pairings were detected, typically at 4.06 and seldom below 2.83. The control count says in how many pairings with the empty strains this scFv gave a signal, with their mean in brackets.

Source: Engelhart et al. 2022 (doi:10.1038/s41597-022-01779-4), MIT Lincoln Laboratory and A-Alpha Bio; data file from the FLAb repository.